Bioassay records (PubChem)
Sampled rows, rich in hits. Any-hit rate of the full collection: about 2.2%.
PI4K2A inh: inhibitors of human PI4K2A. purified PI4K2A, ADP-Glo luminescence, 1 h; hits give low values. activity change, negative = inhibition, % at 76.9 µM. 0.13% of 420,000 active; in the data active = activity change below about -50%; inconclusive = mostly about -30% to -49%;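 also: -100% = wells without enzyme as full effect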
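PI4K2A activity was measured by ADP-Glo luminescence: enzyme (4 ug/mL stock) and phosphatidylinositol (1.2 mM stock) in Tris pH 7.5/MgCl2/EGTA/Triton X-100 buffer were reacted with ATP (300 microM stock) for one hour at ambient temperature.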
miR-21 reporter: miR-21 reporter, rising signal | AID 2288 | HeLa miR-21 FLuc reporter, luciferase, 48 h | 340,000 tested, under 10 active | Potency, µM (titrated, usually from 38.3 µM), for the others: at the top dose reporter change, positive = more light; active = well fitted rising curve with a large enough effect; inconclusive = small, poorly fitted or top-dose-only effect; inactive = no such curve, though single readings can be large or run the other way;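 also: % of control where 0% means no effect; miR-21 action dims this reporter so a rising signal means less miR-21 action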
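Luminescence from a firefly luciferase reporter carrying a miR-21 binding site downstream, stably expressed under a CMV promoter in HeLa cells that make miR-21 endogenously, reports miRNA modulation after 48 h compound exposure up to approximately 40uM final.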
Nrf2 ARE act: activators of Nrf2 (ARE) signaling; AREc32 ARE-luciferase reporter (MCF7-derived line), luminescence, 24 h; Potency, µM (doses to about 46.1 µM), without a hit: at the highest dose activation, actives largely listed as activators; 0.31% of 410,000 active; AID 624171; also: potency is read from the fitted curve at half-maximal effect; % of control where 0% means no effect; nearly all actives have a fitted effect of over 65% in size
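AREc32 cells carrying an ARE-driven firefly luciferase, 1000 cells/well in OPTI-MEM with 5% FBS, dosed after overnight attachment and incubated 24 hr at 37 deg C. Steady-Glo luminescence read after 30 min at RT.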
A549 viability: kills or reduces viability of A549 cells in Nrf2 counter-screen; Potency, µM (highest dose often 46 µM), inactives show top-dose activity change, negative = cytotoxicity, hits mostly inhibitors; 0.16% of 390,000 active; AID 504648; A549 ARE-Fluc cells, CellTiter-Fluor viability, 18-24 h; also: potency is read from the fitted curve at half-maximal effect; % is scaled to controls: 0 for no effect and ±100 for the full control effect
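A549 ARE_Fluc cells in 5% FBS OPTI-MEM were exposed to compounds in concentration-response for 18-24 h at 37 deg C. Viability was read by CellTiter-Fluor fluorescence (Ex 405/Em 525) after 30 min, before the luciferase read.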
GALK inhibitor: blocks human galactokinase activity; Purified GALK, Kinase-Glo residual ATP luminescence; 0.007% of 270,000 active; Potency, µM (titrated, usually from 57.5 µM), inactives show top-dose activity change, negative = inhibition, most hits filed as inhibitors; P51570; also: potency is read from the fitted curve at half-maximal effect; % is scaled to controls: 0 for no effect and ±100 for the full control effect
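Galactose (100 uM) and ATP (35 uM) were turned over by 5 nM GALK for 1 h at RT. Kinase-Glo Plus then converted the remaining ATP into a luminescent signal.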
Nrf2 block: blocks Nrf2 signaling | A549 ARE-Fluc reporter, luciferase luminescence, 18-24 h | 2.1% of 360,000 active | Potency, µM (titrated, usually from 46 µM), for inactives: top-dose activity change, negative = inhibition, actives largely listed as inhibitors | AID 504444; also: potency is read from the fitted curve at half-maximal effect; % is scaled to controls: 0 for no effect and ±100 for the full control effect; nearly all actives have a fitted effect of over 60% in size
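In this cell-based qHTS, ARE-driven firefly luciferase in A549 cells reports Nrf2 activity; the luminescent signal after BugLite lysis is the measured value, with a prior CellTiter-Fluor read for cell health.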
* hit, by the source's call; u = inconclusive; x = not tested or not shown; [ ] = remark or other dose. Unless noted, calls follow the shape of the dose curve; as a rule, active = well fitted curve in the direction sought with a large enough effect; inconclusive = small, poorly fitted or top-dose-only effect, or another doubt; inactive = no such curve, though single readings can be large; an effect the other way counts as inactive or inconclusive.

Field names – A = PI4K2A inh; B = miR-21 reporter; C = Nrf2 ARE act; D = A549 viability; E = GALK inhibitor; F = Nrf2 block
1) CCCN1CNc2c(c(=O)[nH]c(=S)n2CCc2cc(Cl)ccc2Cl)C1
  A: x	B: x	C: x	D: 14%	E: x	F: 1%
2) CCNC(=S)NNC(=O)CSc1nnc(-c2ccccc2)n1-c1ccc(Cl)cc1
  A: 0	B: x	C: x	D: x	E: x	F: x
3) COc1cccc(N=c2oc3ccccc3cc2-c2nc3ccccc3[nH]2)c1
  A: -13	B: -22%	C: 13%	D: -2%	E: 1%	F: u
4) COc1cccc(N=c2oc3ccc(OC)cc3cc2-c2nc3ccccc3[nH]2)c1
  A: -3	B: -34%	C: 14%	D: 13µM*	E: 0%	F: u
5) O=[N+]([O-])c1cccc2[nH]c(CNc3nc(N4CCOCC4)nc4c3ncn4-c3ccsc3)nc12
  A: -5	B: x	C: x	D: x	E: x	F: x
6) COc1ccc(-c2cc(-c3c(O)c(OC)c4occc4c3OC)[nH]n2)cc1OC
  A: -1	B: -25%	C: 9%	D: u	E: 0%	F: 13µM*
7) COC(=O)C1CN(Cc2cn(CCOC(C)=O)nn2)CCS(=O)(=O)N1Cc1ccc(C)cc1 (stereo unspecified)
  A: -4	B: x	C: x	D: x	E: x	F: x
8) O=C(CCN1CCC(c2ccccc2)C1)c1ccc2c(c1)OCCO2 (stereo unspecified)
  A: 5	B: u	C: 8.9µM*	D: -2%	E: 0%	F: -19%
9) O=C(CCN1CCCCC1)c1ccc2c(c1)OCCO2
  A: 3	B: 11%	C: 18µM*	D: 4%	E: 2%	F: 6%
10) O=C(CCN1CCc2ccccc2C1)c1ccc2c(c1)OCCO2
  A: 22	B: u	C: -2%	D: x	E: 2%	F: 12%

Quoted at random: 3 records from the list, in no set order.
Field names – A = PI4K2A inh; B = miR-21 reporter; C = Nrf2 ARE act; D = A549 viability; E = GALK inhibitor; F = Nrf2 block
6) COc1ccc(-c2cc(-c3c(O)c(OC)c4occc4c3OC)[nH]n2)cc1OC
  A: -1	B: -25%	C: 9%	D: u	E: 0%	F: 13µM*
8) O=C(CCN1CCC(c2ccccc2)C1)c1ccc2c(c1)OCCO2 (stereo unspecified)
  A: 5	B: u	C: 8.9µM*	D: -2%	E: 0%	F: -19%
4) COc1cccc(N=c2oc3ccc(OC)cc3cc2-c2nc3ccccc3[nH]2)c1
  A: -3	B: -34%	C: 14%	D: 13µM*	E: 0%	F: u

The list continues:
Field names – A = PI4K2A inh; B = miR-21 reporter; C = Nrf2 ARE act; D = A549 viability; E = GALK inhibitor; F = Nrf2 block
11) C[C@@H](O)[C@H]1C(=O)N2C(C(=O)O)=C([C@H]3CCCO3)S[C@H]12
  A: 3	B: x	C: x	D: x	E: x	F: x
12) CC(C)C(=O)N1CC[C@H]2[C@H](CCCN2Cc2ccccc2)C1
  A: 1	B: x	C: x	D: x	E: x	F: x
13) O=C(O)c1cc(O)c2c(c1)[C@H]([C@H]1c3cc(C(=O)O)cc(O)c3C(=O)c3c(O[C@@H]4O[C@H](CO)[C@@H](O)[C@H](O)[C@H]4O)cccc31)c1cccc(OC3O[C@H](CO)[C@@H](O)[C@H](O)[C@H]3O)c1C2=O (stereo partly specified)
  A: -64*	B: x	C: -1%	D: 16µM*	E: x	F: u
14) O=C(O)c1cc(O)c2c(c1)[C@@H]([C@H]1c3cc(C(=O)O)cc(O)c3C(=O)c3c(O[C@@H]4O[C@H](CO)[C@@H](O)[C@H](O)[C@H]4O)cccc31)c1cccc(OC3O[C@H](CO)[C@@H](O)[C@H](O)[C@H]3O)c1C2=O (stereo partly specified)
  A: -26	B: x	C: -1%	D: -9%	E: x	F: -18%
15) COc1cc2c(cc1OC)CN(C(=O)CCCOc1ccc(Cl)cc1Cl)CC2
  A: 2	B: -4%	C: 1%	D: -20%	E: 2%	F: 18µM*
16) COc1ccc(Nc2ccc(S(=O)(=O)N3CCCCC3)cc2[N+](=O)[O-])cc1
  A: 1	B: -3%	C: -1%	D: u	E: 1%	F: 7.3µM*
17) COc1ccc2cc(S(=O)(=O)N3CCCCC3)ccc2c1S(=O)(=O)N1CCCCC1
  A: 5	B: 17%	C: 0%	D: -10%	E: 0%	F: 16µM*
18) COc1ccc(S(=O)(=O)N2CCCC2)cc1OC
  A: -8	B: -10%	C: 0%	D: 3%	E: 0%	F: 10%
19) COc1ccc(Nc2ccc(S(=O)(=O)N3CCCCC3)cc2[N+](=O)[O-])cc1Cl
  A: 2	B: -4%	C: 0%	D: -18%	E: 2%	F: u
20) CCOC(=O)N1CCN(S(=O)(=O)c2ccc(C(=O)NNc3nc4cc(C)cc(C)c4s3)cc2)CC1
  A: -5	B: 5%	C: 0%	D: u	E: x	F: 3.7µM*
21) O=C(CSc1nnc(-c2c[nH]c3ccccc23)o1)N1c2ccccc2CCc2ccccc21
  A: 2	B: 22%	C: 0%	D: -26%	E: 0%	F: 12µM*
22) CC1Cc2ccccc2N1C(=O)CSc1nnc2c(n1)[nH]c1ccccc12 (stereo unspecified)
  A: -4	B: 3%	C: 1%	D: -3%	E: 0%	F: u
23) CC1Cc2ccccc2N1C(=O)CSc1nnc(-c2ccccc2Cl)o1 (stereo unspecified)
  A: 0	B: 4%	C: 1.8µM*	D: 0%	E: x	F: -29%
24) O=C(CSc1nnc(-c2c[nH]c3ccccc23)o1)N1CCCCC1
  A: -3	B: -55%	C: 8%	D: 3%	E: -5%	F: u
25) CC1Cc2ccccc2N1C(=O)CSc1nnc(-c2ccccc2)c(-c2ccccc2)n1 (stereo unspecified)
  A: -5	B: -1%	C: 0%	D: 0%[1.84 µM]	E: 3%	F: 23µM*
26) CCN1CCCCC(NC(=O)c2ccc(C)cc2)C1=O (stereo unspecified)
  A: -1	B: x	C: x	D: x	E: x	F: x
27) COc1cc(/C=N/NC(=O)c2c(-c3c(Cl)cccc3Cl)noc2C)ccc1OCC(N)=O
  A: 8	B: 0%	C: 4%	D: -2%	E: 5%	F: 11%
28) Cc1onc(-c2c(Cl)cccc2Cl)c1C(=O)N/N=C(\N)COc1ccc(Cl)cc1
  A: 4	B: 22%	C: -1%	D: -28%	E: 0%	F: 8.2µM*
29) C=CCN(C(=O)[C@@H](C1CC1)[C@@H](O)c1ccc2ccccc2c1)c1ccccc1
  A: -4	B: x	C: x	D: x	E: x	F: x
30) COc1ccc(-n2c(=S)[nH]c3cc(C(=O)Nc4cc(C(N)=O)ccc4OC)ccc3c2=O)c(OC)c1
  A: 5	B: 8%	C: 0%	D: -2%	E: 17%	F: -11%
31) COc1ccc(-n2c(=S)[nH]c3cc(C(=O)Nc4ccc(C)c(F)c4)ccc3c2=O)c(OC)c1
  A: 5	B: u	C: 1%	D: -10%	E: 0%	F: 23µM*
32) COc1ccc(-n2c(=S)[nH]c3cc(C(=O)NC4CCCCC4)ccc3c2=O)c(OC)c1
  A: 2	B: -10%	C: 0%	D: -15%	E: 0%	F: 15µM*
33) CCOc1ccc(NC(=O)c2ccc3c(=O)n(-c4ccc(OC)cc4OC)c(=S)[nH]c3c2)cc1
  A: x	B: 29%	C: x	D: x	E: 7%	F: x
34) COc1ccc(NC(=O)c2ccc3c(=O)n(-c4ccc(OC)cc4OC)c(=S)[nH]c3c2)c(OC)c1
  A: -4	B: 11%	C: 0%	D: -10%	E: 11%	F: 26µM*
35) O=[S+]([O-])(c1ccc2c(c1)OCCO2)N1CCN([S+](=O)([O-])c2ccc(F)cc2Cl)CC1
  A: x	B: x	C: x	D: 1%	E: x	F: -20%
36) CC(C)(C)c1ccc(C(=O)NCC(=O)OC(C(=O)Nc2cc(C(F)(F)F)ccc2Cl)c2ccccc2)cc1 (stereo unspecified)
  A: x	B: x	C: x	D: 1%	E: x	F: u
37) COc1cc(/C=C/C(=O)O[C@H]2CC[C@]34C[C@]35CC[C@]3(C)[C@@H]([C@H](C)CCC=C(C)C)CC[C@@]3(C)[C@@H]5CC[C@H]4C2(C)C)ccc1O
  A: 2	B: x	C: x	D: x	E: x	F: x
38) Cn1nnnc1Sc1ncnc2scc(-c3ccccc3C#N)c12
  A: x	B: x	C: x	D: -8%	E: x	F: u
39) COc1ccc(-c2cn3c(C)c(C(=O)N4CCc5ccccc5C4)sc3n2)cc1
  A: 1	B: 10%	C: 0%	D: -5%	E: x	F: 16µM*
40) COc1ccc2[nH]c(C(=O)N3CCc4ccccc4C3)c(C)c2c1
  A: 1	B: -4%	C: 3%	D: 9%	E: -7%	F: 18µM*
